# Binding of CDR-mutated scFvs to a peptide of the spike HR2 region

The target is the same throughout: PDVDLGDISGINAS, from the HR2 region of SARS-CoV-2 spike.

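Phage display of a naive human antibody library on the peptide gave the parent. This is the validation round: designs drawn from the data on random variants, tested in the same kind of assay. Group labels follow the data file (Ctrl: baseline library sampled from a position-specific scoring matrix, with some repeated check sequences; GP: Gaussian process model; Gen: genetic algorithm; a sequence that several methods proposed may carry one label only). The assay is AlphaSeq: two haploid yeast populations carry antibody and antigen on their surface. Binding brings cells together so that they mate, and sequencing counts the barcode pairs among the diploids. The ratio of observed to expected reads was calibrated, replicate by replicate, on BCL2-family standards whose Kd was known from biolayer interferometry. The assay was run in six technical replicates.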

Ab-14 is the parent antibody, in scFv form: VH, then a 15-residue (Gly4Ser)3 linker, then VL. The heavy chain is unchanged in all variants.
VH: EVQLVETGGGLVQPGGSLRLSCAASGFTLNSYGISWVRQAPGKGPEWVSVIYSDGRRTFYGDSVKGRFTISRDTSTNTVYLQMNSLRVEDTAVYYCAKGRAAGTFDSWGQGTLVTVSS
VL: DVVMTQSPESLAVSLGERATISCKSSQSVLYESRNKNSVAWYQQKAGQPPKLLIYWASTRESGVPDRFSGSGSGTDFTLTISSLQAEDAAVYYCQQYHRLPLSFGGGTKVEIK

Sequences are complete VL domains. The read-out is the apparent dissociation constant on a log10 scale (nM): the lower, the stronger. The mean shown is taken over the replicates in which the pair was detected. "n.d." marks a missing value. The strain was present, yet no cells mated with the target were sequenced in that replicate, which points to weak or no binding.

| VL | group | log10 Kd, replicates | mean, log10 nM | empty controls |
|---|---|---|---|---|
| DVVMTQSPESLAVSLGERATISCKSDQSVLYESRNKNSFAWYQQKAGQPPKLLIYQASTRESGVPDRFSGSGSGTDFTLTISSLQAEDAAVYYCQQYHRLPLSFGGGTKVEIK | Ctrl | 1.16 0.97 0.79 0.65 0.92 1.16 | 0.94 | 3 of 18 (2.45) |
| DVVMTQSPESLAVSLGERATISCKSSQSVLYESRNNNSVAWYQQKAGQPPKLLIYWAKTRESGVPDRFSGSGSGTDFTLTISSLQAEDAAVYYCQQYHRLPLSFGGGTKVEIK | Ctrl | n.d. 3.64 n.d. n.d. n.d. n.d. | 3.64 | 1 of 18 (2.56) |
| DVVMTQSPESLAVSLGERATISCKSSQSVLYESRNKNSVAWYQQKAGQPPKLLIYWGSTRESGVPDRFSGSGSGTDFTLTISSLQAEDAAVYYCQTYHRLPLSFGGGTKVEIK | Ctrl | n.d. 2.15 n.d. 1.60 2.48 2.33 | 2.14 | 0 of 18 |
| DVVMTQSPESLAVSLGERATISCKISQSSLYESRNKNSVAWYQQKAGQPPKLLIYWASTREGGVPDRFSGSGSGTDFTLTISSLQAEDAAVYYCQQYHQQPLSFGGGTKVEIK | Ctrl | 0.82 0.92 0.35 0.95 0.52 0.74 | 0.72 | 4 of 18 (2.97) |
| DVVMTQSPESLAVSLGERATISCKSSQSVLYESENKNSVAWYQQKAGQPPKLLIYDASTRESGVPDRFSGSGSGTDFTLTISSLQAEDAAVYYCQQYHRLPLSFGGGTKVEIK | Ctrl | 0.35 0.48 0.28 0.31 0.51 0.25 | 0.36 | 0 of 18 |
| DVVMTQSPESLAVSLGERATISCKLSQSVGYESRNKNSVAWYQQKAGQPPKLLIYWASTRERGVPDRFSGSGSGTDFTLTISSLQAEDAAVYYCQQYHRLPLSFGGGTKVEIK | Ctrl | 1.03 1.61 0.77 1.77 1.57 1.38 | 1.35 | 2 of 18 (4.00) |
| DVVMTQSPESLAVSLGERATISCVISQSVLYESRNKNSVAWYQQKAGQPPKLLIYAASTRESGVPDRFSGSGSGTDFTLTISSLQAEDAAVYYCQTYHRIPLSFGGGTKVEIK | Ctrl | 1.51 0.87 0.66 0.84 0.87 1.49 | 1.04 | 2 of 18 (2.67) |
| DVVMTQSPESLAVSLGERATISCKSSWSVLNESHNKNSVAWYQQKAGQPPKLLIYSAKTRENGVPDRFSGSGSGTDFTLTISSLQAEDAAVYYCQQYHRLPLSFGGGTKVEIK | Ctrl | 0.52 1.02 0.77 0.52 0.72 0.86 | 0.73 | 3 of 18 (3.33) |
| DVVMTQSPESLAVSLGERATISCKSSQSVLHESRNKNSVAWYQQKAGQPPKLLIYWASTRGSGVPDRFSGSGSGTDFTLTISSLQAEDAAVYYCQQYHRLPLSFGGGTKVEIK | Ctrl | n.d. n.d. 0.56 n.d. n.d. n.d. | 0.56 | 0 of 18 |
| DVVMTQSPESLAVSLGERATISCKSSLSVLYESRLKNSVAWYQQKAGQPPKLLIYGASTRESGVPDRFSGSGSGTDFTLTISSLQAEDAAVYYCQYYHRLPLSFGGGTKVEIK | Ctrl | n.d. n.d. n.d. n.d. n.d. n.d. | n.d. | 0 of 18 |
| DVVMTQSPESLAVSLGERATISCKSSQSVVYEIRNENSVAWYQQKAGQPPKLLIYWASTRESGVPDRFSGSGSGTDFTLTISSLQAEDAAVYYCQQYHRLPLSFGGGTKVEIK | Ctrl | 1.05 1.55 1.52 1.17 0.68 1.87 | 1.30 | 2 of 18 (2.33) |
| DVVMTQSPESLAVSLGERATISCKSSQSVLYEQLNKNSVAWYQQKAGQPPKLLIYTASIRESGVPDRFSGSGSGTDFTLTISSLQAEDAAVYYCTQYHRLPLSFGGGTKVEIK | Ctrl | n.d. n.d. n.d. n.d. n.d. n.d. | n.d. | 0 of 18 |
| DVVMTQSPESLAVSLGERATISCKSTQSVLYEMRNKNSVAWYQQKAGQPPKLLIYWASTRESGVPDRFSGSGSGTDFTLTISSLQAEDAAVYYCQQYHRLPLSFGGGTKVEIK | Ctrl | -0.27 -0.27 -0.60 -0.55 -0.27 -0.56 | -0.42 | 0 of 18 |
| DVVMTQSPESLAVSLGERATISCKSSQSVLDESRNKNSVAWYQQKAGQPPKLLIYSASTRESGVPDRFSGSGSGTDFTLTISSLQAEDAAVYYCQQYARLPLSFGGGTKVEIK | Ctrl | 0.38 0.19 0.14 0.35 0.18 0.21 | 0.24 | 0 of 18 |
| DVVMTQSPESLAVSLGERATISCKFSESVGYESRNKNSVAWYQQKAGQPPKLLIYWASTRESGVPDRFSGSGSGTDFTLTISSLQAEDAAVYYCCQYHRLPLSFGGGTKVEIK | Ctrl | 1.42 2.29 1.65 2.25 2.00 n.d. | 1.92 | 1 of 18 (1.16) |
| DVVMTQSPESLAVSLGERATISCKSSQSVLYESRNWNSVAWYQQKAGQPPKLLIYWASTREAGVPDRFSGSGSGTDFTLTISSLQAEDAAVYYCQQYHRLPLSFGGGTKVEIK | Ctrl | 1.56 1.39 1.77 1.97 2.22 2.18 | 1.85 | 1 of 18 (2.46) |
| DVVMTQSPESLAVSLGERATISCKLSQSVLYESRNKNSVAWYQQKAGQPPKLLIYGASTREEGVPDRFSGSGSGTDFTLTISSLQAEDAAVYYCQQYHRLPLSFGGGTKVEIK | Ctrl+GP_Gen | 0.03 -0.21 -0.10 -0.32 0.19 -0.25; 0.86 0.11 0.23 0.30 -0.07 0.37 | 0.09 | 2 of 36 (2.00) |
| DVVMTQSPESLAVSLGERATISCKLSWSVVYESRNKNSVAWYQQKAGQPPKLLIYGASTRESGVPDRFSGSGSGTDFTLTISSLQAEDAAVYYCQTYHRLPLSFGGGTKVEIK | Ctrl | 0.36 0.10 -0.06 -0.22 -0.03 0.07 | 0.04 | 2 of 18 (2.72) |
| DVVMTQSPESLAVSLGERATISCKSSQSKLYESRNFNSVAWYQQKAGQPPKLLIYWASTRESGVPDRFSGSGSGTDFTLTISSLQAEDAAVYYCQQYHRLPLSFGGGTKVEIK | Ctrl | 1.81 n.d. n.d. 2.19 2.37 1.42 | 1.95 | 0 of 18 |
| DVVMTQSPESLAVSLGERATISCKVSPSVLAESRNKNSVAWYQQKAGQPPKLLIYQASTRESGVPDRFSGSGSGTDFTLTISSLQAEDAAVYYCEQYHRLPLSFGGGTKVEIK | Ctrl | -0.21 -0.51 -0.65 -0.54 -0.13 0.03 | -0.34 | 1 of 18 (1.70) |
| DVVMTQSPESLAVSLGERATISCQSSQSVLYTSRNKNSVAWYQQKAGQPPKLLIYWASIRESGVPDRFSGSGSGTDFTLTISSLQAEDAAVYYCQQYHRLPLSFGGGTKVEIK | Ctrl | n.d. n.d. n.d. n.d. 2.25 n.d. | 2.25 | 1 of 18 (2.11) |
| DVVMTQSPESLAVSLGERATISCKSSQSQLYESRNKNSVAWYQQKAGQPPKLLIYWASTRESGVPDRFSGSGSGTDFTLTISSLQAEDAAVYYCQQYIRLPLSFGGGTKVEIK | Ctrl | n.d. n.d. n.d. 0.68 n.d. n.d. | 0.68 | 0 of 18 |
| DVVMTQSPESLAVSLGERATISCKLSQSVLYESDNKNSVAWYQQKAGQPPKLLIYEADTRESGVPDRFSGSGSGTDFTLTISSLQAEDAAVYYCQQYHRLPLSFGGGTKVEIK | Ctrl | 0.20 0.04 0.16 0.03 -0.15 0.28 | 0.09 | 0 of 18 |
| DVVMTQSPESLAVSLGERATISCKSSDSVLYESRNKNSVAWYQQKAGQPPKLLIYYASTRESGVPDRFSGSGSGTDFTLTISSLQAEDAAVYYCQSYCRLPLSFGGGTKVEIK | Ctrl | n.d. n.d. n.d. n.d. n.d. n.d. | n.d. | 0 of 18 |
| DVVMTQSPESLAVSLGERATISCKSMQSVLYESRDKNSVAWYQQKAGQPPKLLIYKASTRESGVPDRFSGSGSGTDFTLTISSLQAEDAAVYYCQQYHRLPLSFGGGTKVEIK | Ctrl | 1.34 0.70 0.42 0.08 0.39 0.52 | 0.58 | 2 of 18 (1.75) |

The authors averaged sequences with at least three values out of six and counted those with two or fewer as poor binders. A sequence measured in both rounds can read differently, since the two assays cover different ranges. Some sequences occur more than once in the pool; their replicates are listed entry by entry, parted by semicolons. Of ten entries with the parent sequence, four were seen in most replicates (averages 0.34 to 2.37), three in one and three in none, so single entries are noisy. As a blank, each scFv also met three strains without target: over all light chain designs, 4% of these pairings were detected, typically at 2.64 and seldom below 1.59. The control count says in how many pairings with the empty strains this scFv gave a signal, with their mean in brackets.

Reference: Li et al. 2023, doi:10.1038/s41467-023-39022-2. File: FLAb, binding data.